The record followed here is ChEMBL document CHEMBL3091342, “Preparation, in vitro evaluation and molecular modelling of pyridinium-quinolinium/isoquinolinium non-symmetrical bisquaternary cholinesterase inhibitors” (Bioorg Med Chem Lett, 2013).

Chains of the proteins cited; added tags and fusions are not shown. Residues count along the entry.
UniProt P22303, 32-614 limits assumed: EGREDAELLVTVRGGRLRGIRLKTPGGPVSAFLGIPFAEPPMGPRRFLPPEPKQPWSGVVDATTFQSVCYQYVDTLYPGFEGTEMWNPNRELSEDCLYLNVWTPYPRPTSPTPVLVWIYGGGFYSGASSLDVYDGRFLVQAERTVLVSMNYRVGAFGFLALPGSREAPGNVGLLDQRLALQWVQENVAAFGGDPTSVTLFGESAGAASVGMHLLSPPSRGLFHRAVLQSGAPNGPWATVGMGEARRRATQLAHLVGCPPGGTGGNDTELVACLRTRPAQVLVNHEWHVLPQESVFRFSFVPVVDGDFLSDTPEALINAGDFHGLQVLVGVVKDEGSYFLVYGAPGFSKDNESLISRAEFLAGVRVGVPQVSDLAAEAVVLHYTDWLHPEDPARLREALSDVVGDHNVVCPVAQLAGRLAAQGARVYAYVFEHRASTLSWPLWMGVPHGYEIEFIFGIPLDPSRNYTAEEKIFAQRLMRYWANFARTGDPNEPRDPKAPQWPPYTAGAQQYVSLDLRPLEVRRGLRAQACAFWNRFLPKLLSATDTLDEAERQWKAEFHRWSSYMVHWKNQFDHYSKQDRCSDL

For orientation: Ki means the dissociation constant of the complex between target and ligand, obtained from inhibition or displacement. High values mean weaker binding, low ones tighter binding.

The target of this test is Acetylcholinesterase (Homo sapiens, UniProt P22303).

`c1cc[n+](CCCCCCCCCC[n+]2cccc3ccccc32)cc1` yielded an inhibitory constant (Ki) of 400 nM.
